From patent US11767341B2, “Lincosamide antibiotics and uses thereof” (President and Fellows of Harvard College, priority 2017, dated 2023)

What was measured:
Test in all cases: MIC determination
Type in all cases: cell-based
[1] = tested on: S. aureus BAA-1556 (USA 300); conditions: Staphylococcus aureus
[2] = tested on: S. aureus UNT96, NRS710, MP-618 (USA 100, Erythro >8); conditions: Staphylococcus aureus
[3] = tested on: S. aureus UNT-146, MP-620, TP 506 (ermA); conditions: Staphylococcus aureus
[4] = tested on: S. aureus UNT-120, MP-619, NRS22 (USA 600, GISA); conditions: Staphylococcus aureus
[5] = tested on: S. pneumoniae TP 1537 (ermB + mefA); conditions: Streptococcus pneumoniae
E. faecalis UNT-047 VRE = conditions: Enterococcus faecalis
[6] = tested on: K. pneumoniae IHMA 658692; KPC-2; conditions: Klebsiella pneumoniae
K. pneumoniae UNT TEM-10 = conditions: Klebsiella pneumoniae, UNTTEM10

CCC[C@@H]1C[C@@H](C(=O)N[C@@H]([C@H]2O[C@H](SC)[C@H](O)[C@@H](O)[C@H]2O)[C@H](C)Cl)N(C)C1 [Clindamycin, clindamycin, reference compound]
MIC [1]: > 32 µg/mL | MIC [2]: > 32 µg/mL | MIC [3]: > 32 µg/mL | MIC [4]: > 32 µg/mL | MIC [5]: > 32 µg/mL | MIC (E. faecalis UNT-047 VRE): > 30 µg/mL | MIC [6]: > 32 µg/mL | MIC (K. pneumoniae UNT TEM-10): > 32 µg/mL
